Laboratory results from US12576087B2, “Aryloxypiperidine pyrazole compounds as indoleamine 2,3-dioxygenase inhibitors” (Merck Sharp & Dohme LLC, priority 2018, dated 2026).
pEC50: −log10 of the molar value.

Sequences of proteins named here, by UniProt entry; tags and fusion partners are left off.
UniProt P14902, whole entry: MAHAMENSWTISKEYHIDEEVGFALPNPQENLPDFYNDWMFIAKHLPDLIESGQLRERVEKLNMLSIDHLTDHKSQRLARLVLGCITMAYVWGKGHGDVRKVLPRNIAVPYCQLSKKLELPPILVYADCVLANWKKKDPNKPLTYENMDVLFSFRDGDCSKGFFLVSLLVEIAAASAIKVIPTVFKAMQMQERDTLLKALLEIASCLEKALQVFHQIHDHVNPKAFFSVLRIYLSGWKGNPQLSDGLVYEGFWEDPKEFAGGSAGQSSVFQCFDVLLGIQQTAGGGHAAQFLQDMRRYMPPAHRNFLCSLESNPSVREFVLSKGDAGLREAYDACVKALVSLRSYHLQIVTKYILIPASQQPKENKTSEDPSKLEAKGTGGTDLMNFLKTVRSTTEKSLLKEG

Each compound was assayed against IDO1 (Homo sapiens, UniProt P14902) (assay: IDO1 Cellular Assay in HeLa Cells Stimulated with IFNγ). Conditions: HeLa cells stimulated with IFNγ 100 ng/mL, about 48 hours.
Type: cell-based

Row | pEC50 | Structure (SMILES)
1 | 6.89 | C[C@@H]1CN(C(=O)c2nn(CC(=O)N3CCC(Oc4cccc5ccccc45)CC3)c3c2CCC3)C[C@H](C)O1 [Example 109, 2-{3-[(2R,6S)-2,6-dimethylmorpholine-4-carbonyl]-5,6-dihydrocyclopenta[c]pyrazol-1(4H)-yl}-1-{4-[(naphthalen-1-yl)oxy]piperidin-1-yl}ethan-1-one]
2 | 8.02 | C[C@@H]1CN(C(=O)c2nn(CC(=O)N3CCC(Oc4ccc(Br)cc4)CC3)c3c2CCC3)C[C@H](C)O1 [Example 97, 1-[4-(4-bromophenoxy)piperidin-1-yl]-2-{3-[(2R,6S)-2,6-dimethylmorpholine-4-carbonyl]-5,6-dihydrocyclopenta[c]pyrazol-1(4H)-yl}ethan-1-one]
3 | 6.86 | C[C@@H]1CN(C(=O)c2nn(CC(=O)N3CCC(Oc4ncccc4OC(F)(F)F)CC3)c3c2CCC3)C[C@H](C)O1 [Example 111, 2-{3-[(2R,6S)-2,6-dimethylmorpholine-4-carbonyl]-5,6-dihydrocyclopenta[c]pyrazol-1(4H)-yl}-1-(4-{[3-(trifluoromethoxy)pyridin-2-yl]oxy}piperidin-1-yl)ethan-1-one]

Further lines, the compound ahead of its results:

Row | Structure (SMILES) | pEC50
4 | C[C@@H]1CN(C(=O)c2nn(CC(=O)N3CCC(Oc4ccccc4OC(F)(F)F)CC3)c3c2CCC3)C[C@H](C)O1 [Example 100, 2-{3-[(2R,6S)-2,6-dimethylmorpholine-4-carbonyl]-5,6-dihydrocyclopenta[c]pyrazol-1(4H)-yl}-1-{4-[2-(trifluoromethoxy)phenoxy]piperidin-1-yl}ethan-1-one] | 7.74
5 | C[C@H]1C[C@H](Oc2ncccc2C(F)(F)F)CCN1C(=O)Cn1nc(C(=O)N2CCC(O)CC2)c2c1CC1CC21 (stereo in doubt) [Example 57, 2-((3bR,4aR)-3-(4-hydroxypiperidine-1-carbonyl)-3b,4,4a,5-tetrahydro-1H-cyclopropa[3,4]cyclopenta[1,2-c]pyrazol-1-yl)-1-((2S,4R)-2-methyl-4-((3-(trifluoromethyl)pyridin-2-yl)oxy)piperidin-1-yl)ethanone] | 7.41
6 | C[C@@H]1CN(C(=O)c2nn(CC(=O)N3CCC(Oc4cccc(C(F)(F)F)c4F)CC3)c3c2CCC3)C[C@H](C)O1 [Example 163, 2-{3-[(2R,6S)-2,6-dimethylmorpholine-4-carbonyl]-5,6-dihydrocyclopenta[c]pyrazol-1(4H)-yl}-1-{4-[2-fluoro-3-(trifluoromethyl)phenoxy]piperidin-1-yl}ethan-1-one] | 6.50
7 | C[C@@H]1CN(C(=O)c2nn(CC(=O)N3CCC(Oc4ccc(Cl)c(F)c4)CC3)c3c2CCC3)C[C@H](C)O1 [Example 148, 1-[4-(4-chloro-3-fluorophenoxy)piperidin-1-yl]-2-{3-[(2R,6S)-2,6-dimethylmorpholine-4-carbonyl]-5,6-dihydrocyclopenta[c]pyrazol-1(4H)-yl}ethan-1-one] | 7.57
8 | Cc1cc(C)c(C)c(OC2CCN(C(=O)Cn3nc(C(=O)N4C[C@@H](C)O[C@@H](C)C4)c4c3CCC4)CC2)c1 [Example 152, 2-{3-[(2R,6S)-2,6-dimethylmorpholine-4-carbonyl]-5,6-dihydrocyclopenta[c]pyrazol-1(4H)-yl}-1-[4-(2,3,5-trimethylphenoxy)piperidin-1-yl]ethan-1-one] | 7.45
9 | C[C@@H]1CN(C(=O)c2nn(CC(=O)N3CCC(Oc4ccc(Cl)cc4)CC3)c3c2CCC3)C[C@H](C)O1 [Example 105, 1-[4-(4-chlorophenoxy)piperidin-1-yl]-2-{3-[(2R,6S)-2,6-dimethylmorpholine-4-carbonyl]-5,6-dihydrocyclopenta[c]pyrazol-1(4H)-yl}ethan-1-one] | 7.56
10 | Cc1ccccc1OC1CCN(C(=O)Cn2nc(C(=O)N3CC[C@H](O)[C@H](F)C3)c3c2CCCC3)CC1 [Example 31, 2-(3-((3R,4S)-3-fluoro-4-hydroxypiperidine-1-carbonyl)-4,5,6,7-tetrahydro-1H-indazol-1-yl)-1-(4-(o-tolyloxy)piperidin-1-yl)ethanone] | 8.53
